Measured values reported in patent publication US10239916B2, “Controlled modulation of amino acid side chain length of peptide antigens” (Board of Regents, The University of Texas System, priority 2002, dated 2019).

Test system: E75- and S5K-CTL lines
Assay: Fas (CD95)-mediated apoptosis / cell cycle analysis in CTL lines
Set-up: inhibition of residual Fas-apoptosis: dose or concentration left out as unconfirmed

Sequence: KIFGKLAFL [S5K]
- inhibition of residual Fas-apoptosis (S5K-CTL, CH11, 24 h, 5 and […] μg/ml): inhibited the residual Fas-apoptosis within 24 h
- residual Fas-mediated apoptosis of F42SK-CTL (after multiple rounds of F42 stimulation): ≥ 30%
- inhibition of apoptosis (subG1) of S5K-CTL vs unstimulated (peptide + CH11): 24%
- inhibition of apoptosis (subG1) of S5K-CTL vs unstimulated (peptide alone): 63%
- apoptotic CTL after stimulation with the inducing peptide (three days after stimulation, in the presence of CH11): 15.4%
